Measurements taken from ChEMBL document CHEMBL3864133, “Discovery of a Potent and Selective in Vivo Probe (GNE-272) for the Bromodomains of CBP/EP300” (J Med Chem, 2016).

Molecular target: Nucleosome-remodeling factor subunit BPTF (Homo sapiens, UniProt Q12830)

- pIC50: < 4.70
Compound: CC(=O)N1CCc2c(c(Nc3ccc(-c4cnn(C)c4)cc3F)nn2[C@@H]2CCOC2)C1

pIC50: −log10 of the molar value.
